The record followed here is US9091804B2, “Polymer film, and optically-compensatory film, polarizer and liquid-crystal display device comprising the same” (FUJIFILM Corporation, priority 2004, dated 2015).

Series [1] is described as follows: solubility in 1.5 mol/liter aqueous NaOH at 55° C. (visual). To be noted: 1.5 mol/liter NaOH at 55° C., visual observation.
Series [2] in a line: pKa by potentiometric titration in DMSO/water=7/3.

A value given as a limit tells only on which side of the number the result lay.

`O=P12OCC(C34CC5CC(CC(C5)C3)C4)(CO1)CO2` had a Solubility in series [1] of less than 1%. Further, in series [2], the pKa is more than 14.
`O=P12OCC(COC(c3ccccc3)(c3ccccc3)c3ccccc3)(CO1)CO2` yielded a Solubility in series [1] of less than 1%. In series [2], this compound showed a pKa of more than 14.
